# From PubChem BioAssay
# Rango release inh: inhibitors of RanGTP-induced Rango-importin beta complex dissociation; Biochemical FRET Rango-importin beta, RanGTP-induced dissociation; 340,000 compounds, 0.071% hits; O95149+P62826; Potency, µM (series often up to 46.1 µM), for inactives: at the top dose activity change, negative = inhibition; calls by dose curve; also: % of control where 0% means no effect; nearly all actives have a fitted effect of over 45% in size
#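 Compounds sat 5 min at room temperature with 0.1 uM Rango biosensor plus 0.25 uM importin beta, then FRET pre-read. RanGTP-RCC1 (0.6 uM Ran, 2mM GTP, 0.2 uM RCC1) added for 45 min, and the CFP/YFP post-read measured blocked complex dissociation.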
# Tb PFK inh: inhibitors of T. brucei phosphofructokinase | Potency, µM (series often up to 57.5 µM), for inactives: top-dose activity, negative = inhibition, hits mostly inhibitors | AID 485367 | O15648 | 330,000 compounds, 0.17% hits | T. brucei PFK, ADP-Glo luminescence;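 also: 0% = uninhibited 1x PFK enzyme wells and -100% = no-enzyme wells; nearly all actives have a fitted effect of over 60% in size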
#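 ADP-Glo luminescence quantified ADP after 45 min at room temperature, with 1.25 nM T. brucei PFK, 0.1 mM ATP and 0.5 mM fructose-6-phosphate in pH 8.0 TEA buffer. qHTS titrations up to 57 µM; curves classified by quality.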
# PKM2 activator: activators of human pyruvate kinase M2 | P14618 | purified PKM2, Kinase-Glo ATP luminescence, activation; response scale: 0% is enzyme alone, no compound | Potency, µM (top dose mostly 57.5 µM), for inactives: at the top dose activation, actives largely listed as activators | 260,000 compounds, 0.34% hits | AID 1631; also: % is scaled to controls: 0 for no effect and ±100 for the full control effect; nearly all actives have a fitted effect of over 55% in size
#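 ATP formation by purified human PK-M2, quantified via coupled luciferase luminescence after 1 h at room temperature with 0.1 mM ADP and 0.5 mM PEP final.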
# PGK inhibitor: T. brucei PGK inhibition; 380,000 compounds, 0.043% hits; P07378; PGK/GAPDH coupled, Kinase-Glo luminescence, 60 min; Potency, µM (doses to about 57.5 µM), for inactives: at the top dose activity change, negative = inhibition, most hits filed as inhibitors; also: % is scaled to controls: 0 for no effect and ±100 for the full control effect; nearly all actives have a fitted effect of over 60% in size
#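 Luminescent ATP detection (Kinase-Glo Plus) follows a 60-minute room-temperature incubation, with wells lacking PGK as controls. Buffer: 100 mM TEA (pH 7.6), 5 mM MgCl2, 0.01% Tween-20. Coupling enzyme GAPDH (100 nM final) supplies unstable 1,3-BPG in-well.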
# ELG1 DNA repair: blocks ELG1-dependent DNA repair in HEK293T cells. HEK293T ELG1-luciferase reporter, luminescence, 16 h; DNA damage induced by 5-fluorouridine. 330,000 compounds, 2.3% hits. Potency, µM (highest dose often 46.1 µM), for the others: at the top dose activity change, negative = inhibition, actives largely listed as inhibitors; also: % is scaled to controls: 0 for no effect and ±100 for the full control effect; nearly all actives have a fitted effect of over 55% in size
#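 Step one: seed 2,000 cells per well. Step two: pin-transfer compound or DMSO alongside 5-fluorouridine. Step three: incubate 16 hr, 37 °C, 5% CO2. Step four: add ONE-Glo, wait 30 min, read luminescence.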
# Rango complex inh: inhibitors of Rango-importin beta complex formation | Q14974 | Rango CFP/YFP FRET sensor + importin beta, 45 min | Potency, µM (doses to about 92.2 µM), for the others: top-dose inhibition of complex formation | 340,000 compounds, 0.031% hits; calls by dose curve;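 also: 0% = DMSO wells and 100% = buffer wells lacking importin beta; nearly all actives have a fitted effect of over 15% in size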
#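 FRET biosensor Rango (snurportin 1 IBB between N-terminal EYFP and C-terminal Cerulean), 50 nM in PBS/1 mM DTT/0.02% Tween-20/0.1% BSA, preincubated 5 min RT with compound; 0.125 microM importin beta added, 45 min RT, CFP/YFP FRET ratio read.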
# Active calls of the source: *; i = inactive; ? = inconclusive; nt = no result given; [ ] = dose if it differs, or a comment. A selection: hits, their analogues and other compounds. The true share with any hit is near 2.4%. Unless noted, calls follow the shape of the dose curve; as a rule, active = well fitted curve in the direction sought with a large enough effect; inconclusive = small, poorly fitted or top-dose-only effect, or another doubt; inactive = no such curve, though single readings can be large; an effect the other way counts as inactive or inconclusive. Potency is read from the fitted curve at half-maximal effect.
1. Cc1ccccc1-n1ncc2c1CC(C)(C)CC2NC(=O)CCN1CCCCC1=O (stereo not drawn)
2. C=CCn1c(SCc2ccccc2Cl)nnc1-c1sc2nc(C)cc(C)c2c1N
3. Cc1cc(C)c2c(N)c(-c3nnc(SCc4ccc(Cl)cc4)n3C)sc2n1
4. Cc1cc(S(=O)(=O)N2CCCC(N(C)CCc3ccccn3)C2)c(C)cc1Cl (stereo not drawn)
5. CC1(C)CCC[C@]2(C)[C@H]3Cc4cc(O)ccc4O[C@]3(C)CC[C@@H]12
6. CCc1ccc(CNC(=O)Cn2nc(-c3ccc(C)cc3)ccc2=O)cc1
7. COc1cc(NC(=O)c2sc3ncn(CC(=O)N4CCCC(C)C4)c(=O)c3c2C)cc(OC)c1OC (stereo not drawn)
8. CCN(CC)C(=O)Cn1cnc2sc(C(=O)N3CCN(Cc4ccc5c(c4)OCO5)CC3)c(C)c2c1=O
compound no.	1	2	3	4	5	6	7	8
Rango release inh	-9%	-30%	0%	-12%	4%	nt	-13%	1%
Tb PFK inh	-1%	2%	1%	-2%	1%	2%	0%	-3%
PKM2 activator	0%	2%	-2%	nt	nt	-9%	nt	1%
PGK inhibitor	3%	-9%	-6%	i	0%	-3%	-7%	-3%
ELG1 DNA repair	-14%	21µM*	-13%	?	19%	-2%	?	8.2µM*
Rango complex inh	-4%	?	-4%	4%	0%	nt	-1%	-3%

9. CCn1cnc2sc(C(=O)N3CCN(Cc4ccc5c(c4)OCO5)CC3)c(C)c2c1=O
10. Cc1c(C(=O)Nc2ccc3c(c2)OCO3)sc2ncn(CC(=O)N3CC(C)CC(C)C3)c(=O)c12 (stereo not drawn)
11. O=C(O)c1ccc(Oc2ccc([N+](=O)[O-])cc2)c([N+](=O)[O-])c1
12. COc1cccc(C(=O)Nc2cc(NC(=O)c3cccs3)ccc2C)c1
13. COc1cc(C(=O)Nc2nc(-c3cccs3)cs2)cc(OC)c1OC
14. COc1cc(C(=O)Nc2cccc(NC(=O)c3cccs3)c2)cc(OC)c1OC
15. COc1cc(C(=O)O)cc(NC(=O)c2cccs2)c1OC
16. COc1cc(C(=O)Nc2cccc(NC(=O)c3ccccc3)c2)cc(OC)c1OC
compound no.	9	10	11	12	13	14	15	16
Rango release inh	nt	1%	?	-7%	-3%	1%	?	-2%
Tb PFK inh	1%	1%	nt	3%	1%	-2%	10%	0%
PKM2 activator	-4%	-10%	nt	2%[11.5 µM]	1%	0%	-12%	-2%
PGK inhibitor	nt	1%	-9%	-5%	-4%	-3%	1%	i
ELG1 DNA repair	?	21µM*	nt	?	13µM*	8.2µM*	?	?
Rango complex inh	nt	-1%	0%	0%	1%	-6%	-1%	0%

# Pulled by structure from the entries so far:
14. COc1cc(C(=O)Nc2cccc(NC(=O)c3cccs3)c2)cc(OC)c1OC
7. COc1cc(NC(=O)c2sc3ncn(CC(=O)N4CCCC(C)C4)c(=O)c3c2C)cc(OC)c1OC (stereo not drawn)
4. Cc1cc(S(=O)(=O)N2CCCC(N(C)CCc3ccccn3)C2)c(C)cc1Cl (stereo not drawn)
6. CCc1ccc(CNC(=O)Cn2nc(-c3ccc(C)cc3)ccc2=O)cc1
15. COc1cc(C(=O)O)cc(NC(=O)c2cccs2)c1OC
compound no.	14	7	4	6	15
Rango release inh	1%	-13%	-12%	nt	?
Tb PFK inh	-2%	0%	-2%	2%	10%
PKM2 activator	0%	nt	nt	-9%	-12%
PGK inhibitor	-3%	-7%	i	-3%	1%
ELG1 DNA repair	8.2µM*	?	?	-2%	?
Rango complex inh	-6%	-1%	4%	nt	-1%

# The list goes on:
17. COc1cc(C(=O)OCc2ccc(C)cc2)cc(NC(=O)c2cccs2)c1OC
18. COc1cccc(C(=O)Nc2cc(NC(=O)c3cccs3)ccc2C)c1OC
19. CCNc1nnc(SCC(=O)NC2CCCCCC2)s1
20. CCCCCNc1nc2sc3c(c2c(=O)n1-c1cccc(Cl)c1)CCN(C)C3
21. O=C(CN1CCN(CC(=O)Nc2ccccc2Cc2ccccc2)CC1)Nc1ccccc1Cl
22. O=C(CN1CCCC1)Nc1ccccc1Cl
23. CC(=O)c1cc(-c2ccccc2)n(CCC(=O)NCCc2ccccc2)c1C
24. CC(C)(C)NC(=O)C(c1ccc(-c2ccccc2)cc1)N(C[C@H]1CC[C@@H]([C@@H]2CC[C@H](CO)O2)O1)C(=O)c1ccc(-c2ccccc2)cc1 (stereo partly drawn)
compound no.	17	18	19	20	21	22	23	24
Rango release inh	-20%	4%	-9%	16µM*	28%	16%	nt	2%
Tb PFK inh	-3%	7%	2%	2%	-1%	5%	nt	-3%
PKM2 activator	2%	-2%[11.5 µM]	nt	5%	0%	-3%	nt	nt
PGK inhibitor	i	4%	-5%	2%	-11%	-8%	-8%	6%
ELG1 DNA repair	21µM*	16µM*	-6%	?	26µM*	0%	nt	23µM*
Rango complex inh	-3%	-2%	-1%	?	0%	3%	nt	-5%

25. CC(C)(C)NC(=O)C(c1ccc(-c2ccccc2)cc1)N(C[C@H]1CC[C@@H]([C@@H]2CC[C@H](CO)O2)O1)C(=O)c1ccc2ccccc2c1 (stereo partly drawn)
26. CCc1nnc(NS(=O)(=O)c2ccc(NC(=O)Nc3ccc(OC)cc3)cc2)s1
27. CCc1nnc(NS(=O)(=O)c2ccc(NC(=O)OC)cc2)s1
28. COc1ccc2nc(C)cc(Sc3nc4ccccc4s3)c2c1
29. O=[N+]([O-])c1ccc(N/N=C/c2c[nH]c3ccccc23)cc1
30. CCN(CC)S(=O)(=O)c1ccc2oc(C(=O)NCc3ccccc3OC)c(C)c2c1
31. CC(C)CNC(=O)c1cc([N+](=O)[O-])ccc1N1CCOCC1
32. CC(C)(CNC(=O)c1cc([N+](=O)[O-])ccc1N1CCC(Cc2ccccc2)CC1)N1CCOCC1
compound no.	25	26	27	28	29	30	31	32
Rango release inh	1%	-5%	-12%	29%	?	nt	-1%	-8%
Tb PFK inh	11%	?	2%	0%	1%	nt	-3%	0%
PKM2 activator	nt	2%	28µM*	8%	-2%	nt	-1%	nt
PGK inhibitor	-1%	-6%	i	-10%	-4%	-7%	-4%	-11%
ELG1 DNA repair	?	15%	-7%	5.2µM*	?	nt	0%	21µM*
Rango complex inh	-1%	1%	-1%	-3%	21µM*	nt	6%	?

# Next part
no.	SMILES	Rango release inh	Tb PFK inh	PKM2 activator	PGK inhibitor	ELG1 DNA repair	Rango complex inh
33	O=C(O)C1CCCCC1C(=O)Nc1cc(C(F)(F)F)ccc1Cl (stereo not drawn)	-6%	-5%	-6%	-9%	-11%	3%
34	CC(=O)n1cc(N(C(=O)CCl)c2ccc(C)cc2)c2ccccc21	-7%	2%	6%	i	23µM*	1%
35	Cc1ccc(S(=O)(=O)NCc2ccncc2)cc1C	26%	-2%	0%	-1%	19%	20%
36	Cc1cc(C)c(C)c(S(=O)(=O)NCc2ccncc2)c1C	-2%	1%	nt	-1%	2.9µM*	2%
37	CN(C)S(=O)(=O)c1ccc(C(=O)Nc2ccnn2C2CCCCC2)cc1	-5%	-1%	-8%	18%	26µM*	-3%
38	COc1ccc(-c2cc3nc(C)c(C)c(N4CCN(C(=O)c5ccoc5)CC4)n3n2)cc1	nt	nt	nt	3%	nt	nt
39	Cc1nc2cc(-c3cccc(F)c3)nn2c(N2CCN(C(=O)c3ccco3)CC2)c1C	3%	6%	5%	1%	16µM*	0%
40	COCn1c(=O)c2c(nc(SC3=NCCS3)n2Cc2ccccc2C)n(COC)c1=O	-1%	4%	-4%	nt	18µM*	-1%
41	C[C@H]1Cc2c(-c3ccccc3)nc3c(c2CO1)CN(C(=O)c1cc(I)ccc1F)CC3	nt	nt	-3%[11.5 µM]	nt	nt	nt
42	COc1ccc(NC(=O)CNC(=O)C23CC4CC(CC(C4)C2)C3)c(OC)c1	-3%	18%	nt	-1%	14%	0%
